Measurements reported in US20210147534A1 (RECEPTA BIOPHARMA S A, published 2021).

Target: T1, recombinant mouse MIF (mouse, UniProt P34884 2-115)
T1 construct: Bought: R&D Systems in the first dot-blot (25 nM), Abcam in the second dot-blot (50 nM); also called rMIF; recombinant MIF
Assay: chemiluminescent dot-blotting, peptide on nitrocellulose, recombinant MIF in solution
Experimental: Using the same assay we compared the interaction of the peptides Rb9, Rb10A1, Rb9-MID and vehicle (1% DMSO in dH2O) and recombinant mouse MIF with some modifications. 100 μg of the peptides were dotted on nitrocellulose membranes, blocked and incubated with 50 nM of rMIF (Abcam, Cambridge, UK) overnight at 4° C. Membranes were washed and incubated with primary mouse anti-MIF (R&D, Minneapolis, USA) overnight at 4° C., washed and incubated with the secondary anti-goat IgG-HRP (Sigma-Aldrich, Missouri, USA). The reaction was detected as described above. Graphs represent RLU in dot area quantified using ImageJ software.

Row | binding result | Binder
1 | no binding | AARGETARATFAYWGQG (C-terminal amide (NH2), Linear peptide; N-terminal Cys of Rb10 replaced by alanine; also called A1C) [Rb10A1]
2 | binds | CARGETARATFAYWGQGC (C-terminal amide (NH2); Cys-Cys disulfide bond (C-C), cyclic, Synthetic cyclic peptide derived from the VH CDR3 (H3) of humanized RebMab200; dotted on nitrocellulose in the dot-blot assays; also called Rb9 peptide) [Rb9]
3 | no binding | RATFAYWG (C-terminal amide (NH2), also called Rb-MID) [Rb9-MID]
